Reference: publication PMC10705477 (bioRxiv, 2023)
Numbering of substitutions follows the chain as printed.

T1: γ protein of the E. coli clamp loader, truncated form (residues 1–373) (E. coli, UniProt P06710 1-373)
T1 sequence: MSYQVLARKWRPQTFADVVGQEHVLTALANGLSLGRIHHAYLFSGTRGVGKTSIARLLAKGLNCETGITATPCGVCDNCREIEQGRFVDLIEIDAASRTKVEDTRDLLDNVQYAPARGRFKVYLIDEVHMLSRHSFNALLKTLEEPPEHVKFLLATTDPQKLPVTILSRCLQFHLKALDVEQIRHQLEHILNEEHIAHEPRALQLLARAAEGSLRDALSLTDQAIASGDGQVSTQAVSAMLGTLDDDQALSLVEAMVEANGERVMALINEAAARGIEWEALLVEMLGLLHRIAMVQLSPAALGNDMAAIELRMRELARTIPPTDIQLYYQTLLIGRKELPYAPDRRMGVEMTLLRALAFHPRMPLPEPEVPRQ

T2: γ-K141A (E. coli, UniProt P06710 1-373, K141A)
T2 sequence: T1 sequence with K141A

B1: E. coli sliding clamp (ß-clamp) (natural protein)
chain: MKFTVEREHLLKPLQQVSGPLGGRPTLPILGNLLLQVADGTLSLTGTDLEMEMVARVALVQPHEPGATTVPARKFFDICRGLPEGAEIAVQLEGERMLVRSGRSRFSLSTLPAADFPNLDDWQSEVEFTLPQATMKRLIEATQFSMAHQDVRYYLNGMLFETEGEELRTVATDGHRLAVCSMPIGQSLPSHSVIVPRKGVIELMRMLDGGDNPLRVQIGSNNIRAHVGDFIFTSKLVDGRFPDYRRVLPKNPDKHLEAGCDLLKQAFARAAILSNEKFRGVRLYVSENQLKITANNPEQEEAEEILDVTYSGAEMEIGFNVSYVLDVLNALKCENVRMMLTDSVSSVQIEDAASQSAAYVVMPMRL
B2: δ’ protein of the E. coli clamp loader (natural protein)
chain: MRWYPWLRPDFEKLVASYQAGRGHHALLIQALPGMGDDALIYALSRYLLCQQPQGHKSCGHCRGCQLMQAGTHPDYYTLAPEKGKNTLGVDAVREVTEKLNEHARLGGAKVVWVTDAALLTDAAANALLKTLEEPPAETWFFLATREPERLLATLRSRCRLHYLAPPPEQYAVTWLSREVTMSQDALLAALRLSAGSPGAALALFQGDNWQARETLCQALAYSVPSGDWYSLLAALNHEQAPARLHWLATLLMDALKRHHGAAQVTNVDVPGLVAELANHLSPSRLQAILGDVCHIREQLMSVTGINRELLITDLLLRIEHYLQPGVVLPVPHL
B3: His-δ’ (natural protein)
chain: B2 chain
B4: δ protein of the E. coli clamp loader (natural protein)
chain: MIRLYPEQLRAQLNEGLRAAYLLLGNDPLLLQESQDAVRQVAAAQGFEEHHTFSIDPNTDWNAIFSLCQAMSLFASRQTLLLLLPENGPNAAINEQLLTLTGLLHDDLLLIVRGNKLSKAQENAAWFTALANRSVQVTCQTPEQAQLPRWVAARAKQLNLELDDAANQVLCYCYEGNLLALAQALERLSLLWPDGKLTLPRVEQAVNDAAHFTPFHWVDALLMGKSKRALHILQQLRLEGSEPVILLRTLQRELLLLVNLKRQSAHTPLRALFDKHRVWQNRRGMMGEALNRLSQTQLRQAVQLLTRTELTLKQDYGQSVWAELEGLSLLLCHKPLADVFIDG

Key:
[1] = target: T1, γ protein of the E. coli clamp loader, …; test: cryo-EM structure
[2] = target: B1; test: cryo-EM structure
[3] = target: T1, γ protein of the E. coli clamp loader, …; test: co-purification on an anion-exchange column
[4] = target: T1, γ protein of the E. coli clamp loader, …; test: cryo-EM structure; remark: listed apart in the source
γ-K141A = target: T2, γ-K141A; test: co-purification on an anion-exchange column

Binder: B1
binding result [1]: binds

Binder: B2
binding result [2]: binds
binding result [1]: binds

Binder: B3
binding result [3]: binds

Binder: B4
binding result [4]: binds
binding result (γ-K141A): binds
